# Source: patent US20260384438A1, “PYRROLOPYRIMIDINE CARBOXAMIDES” (published 2026)
# By UniProt entry, the sequences of proteins in these tests, tags left out. Residues count along the entry.
# UniProt P54760, 16-987 limits assumed: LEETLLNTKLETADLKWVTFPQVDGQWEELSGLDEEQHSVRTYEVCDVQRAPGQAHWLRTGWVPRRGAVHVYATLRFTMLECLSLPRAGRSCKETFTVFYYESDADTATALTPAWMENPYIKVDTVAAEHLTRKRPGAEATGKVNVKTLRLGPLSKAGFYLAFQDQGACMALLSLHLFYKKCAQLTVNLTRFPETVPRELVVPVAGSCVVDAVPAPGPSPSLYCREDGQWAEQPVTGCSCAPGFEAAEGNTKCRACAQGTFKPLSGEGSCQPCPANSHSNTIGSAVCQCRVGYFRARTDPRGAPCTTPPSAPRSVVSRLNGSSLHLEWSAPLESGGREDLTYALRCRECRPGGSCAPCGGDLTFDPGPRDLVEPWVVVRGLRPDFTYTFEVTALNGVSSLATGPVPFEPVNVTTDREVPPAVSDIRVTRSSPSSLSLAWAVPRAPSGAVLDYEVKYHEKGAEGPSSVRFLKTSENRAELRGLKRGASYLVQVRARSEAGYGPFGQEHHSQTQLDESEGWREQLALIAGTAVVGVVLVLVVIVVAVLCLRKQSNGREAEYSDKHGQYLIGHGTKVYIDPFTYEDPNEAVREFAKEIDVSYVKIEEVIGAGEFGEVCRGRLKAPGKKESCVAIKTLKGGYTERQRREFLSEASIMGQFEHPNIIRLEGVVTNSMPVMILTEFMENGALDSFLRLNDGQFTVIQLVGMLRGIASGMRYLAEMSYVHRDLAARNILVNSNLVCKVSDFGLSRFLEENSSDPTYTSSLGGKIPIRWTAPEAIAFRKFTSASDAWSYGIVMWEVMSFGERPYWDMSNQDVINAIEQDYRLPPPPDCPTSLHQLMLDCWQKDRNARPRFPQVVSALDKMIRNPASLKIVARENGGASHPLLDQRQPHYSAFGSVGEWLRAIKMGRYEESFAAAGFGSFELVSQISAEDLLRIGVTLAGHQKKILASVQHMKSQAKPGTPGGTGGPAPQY
# UniProt Q00535, whole entry: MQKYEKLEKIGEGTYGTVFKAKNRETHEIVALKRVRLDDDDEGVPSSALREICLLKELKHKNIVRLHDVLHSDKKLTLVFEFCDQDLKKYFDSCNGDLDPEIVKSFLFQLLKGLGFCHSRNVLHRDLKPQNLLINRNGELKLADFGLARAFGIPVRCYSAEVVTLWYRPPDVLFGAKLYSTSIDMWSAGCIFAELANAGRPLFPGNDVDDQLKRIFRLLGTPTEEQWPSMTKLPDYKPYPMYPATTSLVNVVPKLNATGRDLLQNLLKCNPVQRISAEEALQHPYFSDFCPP
# UniProt Q8NFU5, whole entry: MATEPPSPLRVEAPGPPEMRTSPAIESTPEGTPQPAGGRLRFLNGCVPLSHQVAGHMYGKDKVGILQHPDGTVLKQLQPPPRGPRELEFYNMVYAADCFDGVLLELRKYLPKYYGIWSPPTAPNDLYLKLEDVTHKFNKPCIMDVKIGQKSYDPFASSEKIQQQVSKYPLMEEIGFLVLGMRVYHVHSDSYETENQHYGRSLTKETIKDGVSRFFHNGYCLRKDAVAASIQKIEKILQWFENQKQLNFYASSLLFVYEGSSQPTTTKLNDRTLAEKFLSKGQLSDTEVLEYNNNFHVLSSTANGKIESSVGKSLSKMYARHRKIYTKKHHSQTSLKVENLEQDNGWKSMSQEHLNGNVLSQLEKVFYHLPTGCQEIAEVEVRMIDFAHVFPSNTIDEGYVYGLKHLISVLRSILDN
# UniProt P29317, 24-976 limits assumed: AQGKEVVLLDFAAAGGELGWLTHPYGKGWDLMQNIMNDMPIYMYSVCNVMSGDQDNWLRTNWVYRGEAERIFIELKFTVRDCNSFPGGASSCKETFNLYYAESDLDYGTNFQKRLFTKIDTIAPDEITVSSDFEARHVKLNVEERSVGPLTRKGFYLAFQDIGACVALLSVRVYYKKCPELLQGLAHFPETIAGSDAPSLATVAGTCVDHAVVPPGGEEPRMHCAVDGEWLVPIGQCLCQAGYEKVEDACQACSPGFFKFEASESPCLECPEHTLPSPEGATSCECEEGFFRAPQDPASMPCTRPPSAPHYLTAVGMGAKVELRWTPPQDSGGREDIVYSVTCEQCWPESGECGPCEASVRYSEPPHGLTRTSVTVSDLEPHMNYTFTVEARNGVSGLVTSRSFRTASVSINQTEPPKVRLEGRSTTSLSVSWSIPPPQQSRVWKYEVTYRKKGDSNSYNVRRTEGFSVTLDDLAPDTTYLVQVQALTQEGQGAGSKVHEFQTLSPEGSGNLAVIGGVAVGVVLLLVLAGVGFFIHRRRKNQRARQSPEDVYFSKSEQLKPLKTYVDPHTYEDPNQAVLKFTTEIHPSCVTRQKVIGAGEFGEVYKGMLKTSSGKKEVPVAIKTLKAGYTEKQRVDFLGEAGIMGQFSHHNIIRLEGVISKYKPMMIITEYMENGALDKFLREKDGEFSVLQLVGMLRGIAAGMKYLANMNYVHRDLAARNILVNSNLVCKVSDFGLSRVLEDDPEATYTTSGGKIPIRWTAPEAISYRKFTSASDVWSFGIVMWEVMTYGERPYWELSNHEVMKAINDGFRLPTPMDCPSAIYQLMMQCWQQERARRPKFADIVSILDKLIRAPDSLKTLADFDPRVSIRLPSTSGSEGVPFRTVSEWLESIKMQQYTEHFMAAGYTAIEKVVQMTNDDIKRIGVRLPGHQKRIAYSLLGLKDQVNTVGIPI
# UniProt Q9HAZ1, whole entry: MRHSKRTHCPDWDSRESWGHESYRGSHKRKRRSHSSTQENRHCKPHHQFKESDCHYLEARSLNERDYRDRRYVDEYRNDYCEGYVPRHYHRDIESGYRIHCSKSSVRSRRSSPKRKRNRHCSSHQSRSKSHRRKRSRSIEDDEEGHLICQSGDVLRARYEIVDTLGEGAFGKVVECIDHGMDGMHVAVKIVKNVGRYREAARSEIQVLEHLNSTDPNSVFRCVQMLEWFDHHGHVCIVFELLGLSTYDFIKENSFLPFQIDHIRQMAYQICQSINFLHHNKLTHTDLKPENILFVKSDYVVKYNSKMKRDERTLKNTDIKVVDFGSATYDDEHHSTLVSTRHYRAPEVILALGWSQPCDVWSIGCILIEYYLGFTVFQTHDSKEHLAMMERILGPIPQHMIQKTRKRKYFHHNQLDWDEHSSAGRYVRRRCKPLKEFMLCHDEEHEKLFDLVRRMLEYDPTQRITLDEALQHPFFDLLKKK
# UniProt P22607, 23-806 limits assumed: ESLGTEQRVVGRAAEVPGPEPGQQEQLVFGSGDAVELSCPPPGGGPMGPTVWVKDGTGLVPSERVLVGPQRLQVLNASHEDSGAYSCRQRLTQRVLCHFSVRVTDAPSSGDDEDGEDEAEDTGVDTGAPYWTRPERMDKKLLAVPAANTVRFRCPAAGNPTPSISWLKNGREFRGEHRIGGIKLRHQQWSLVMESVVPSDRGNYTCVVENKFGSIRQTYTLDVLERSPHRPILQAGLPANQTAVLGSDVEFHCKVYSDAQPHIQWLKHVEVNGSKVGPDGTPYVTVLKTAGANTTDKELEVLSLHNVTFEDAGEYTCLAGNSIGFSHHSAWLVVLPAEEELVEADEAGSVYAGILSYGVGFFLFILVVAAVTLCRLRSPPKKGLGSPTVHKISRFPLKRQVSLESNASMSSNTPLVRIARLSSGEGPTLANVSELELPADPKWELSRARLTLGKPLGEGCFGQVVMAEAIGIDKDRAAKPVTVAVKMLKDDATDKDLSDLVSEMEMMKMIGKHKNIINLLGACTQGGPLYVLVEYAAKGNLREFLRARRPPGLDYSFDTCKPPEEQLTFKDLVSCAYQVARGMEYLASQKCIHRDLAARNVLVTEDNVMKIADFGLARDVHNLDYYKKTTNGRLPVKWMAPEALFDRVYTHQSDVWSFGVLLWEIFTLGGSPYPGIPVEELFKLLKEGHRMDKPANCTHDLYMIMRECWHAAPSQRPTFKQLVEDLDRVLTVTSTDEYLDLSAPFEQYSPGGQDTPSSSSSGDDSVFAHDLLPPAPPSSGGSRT
# UniProt Q9H2K8, whole entry: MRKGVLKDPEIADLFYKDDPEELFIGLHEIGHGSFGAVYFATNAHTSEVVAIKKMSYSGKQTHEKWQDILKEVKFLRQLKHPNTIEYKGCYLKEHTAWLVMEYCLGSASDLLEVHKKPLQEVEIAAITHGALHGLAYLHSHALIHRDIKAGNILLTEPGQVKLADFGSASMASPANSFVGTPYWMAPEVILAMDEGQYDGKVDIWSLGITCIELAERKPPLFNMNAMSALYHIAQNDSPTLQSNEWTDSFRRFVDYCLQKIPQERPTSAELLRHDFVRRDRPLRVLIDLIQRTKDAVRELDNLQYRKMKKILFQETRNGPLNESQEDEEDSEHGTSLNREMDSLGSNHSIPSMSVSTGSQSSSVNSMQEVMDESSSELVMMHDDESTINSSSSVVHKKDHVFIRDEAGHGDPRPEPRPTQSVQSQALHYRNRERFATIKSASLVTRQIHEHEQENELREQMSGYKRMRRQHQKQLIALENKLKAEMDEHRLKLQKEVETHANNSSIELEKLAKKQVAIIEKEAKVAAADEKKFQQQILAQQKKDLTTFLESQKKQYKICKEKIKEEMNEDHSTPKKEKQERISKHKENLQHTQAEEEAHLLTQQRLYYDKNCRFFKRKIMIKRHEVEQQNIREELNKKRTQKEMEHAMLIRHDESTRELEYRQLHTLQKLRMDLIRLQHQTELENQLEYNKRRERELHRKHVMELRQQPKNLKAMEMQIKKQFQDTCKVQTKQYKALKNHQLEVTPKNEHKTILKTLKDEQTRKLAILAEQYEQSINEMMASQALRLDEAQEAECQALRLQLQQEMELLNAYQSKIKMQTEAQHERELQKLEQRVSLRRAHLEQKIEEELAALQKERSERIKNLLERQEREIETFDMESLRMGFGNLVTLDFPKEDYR
# UniProt Q04912, 25-1400 limits assumed: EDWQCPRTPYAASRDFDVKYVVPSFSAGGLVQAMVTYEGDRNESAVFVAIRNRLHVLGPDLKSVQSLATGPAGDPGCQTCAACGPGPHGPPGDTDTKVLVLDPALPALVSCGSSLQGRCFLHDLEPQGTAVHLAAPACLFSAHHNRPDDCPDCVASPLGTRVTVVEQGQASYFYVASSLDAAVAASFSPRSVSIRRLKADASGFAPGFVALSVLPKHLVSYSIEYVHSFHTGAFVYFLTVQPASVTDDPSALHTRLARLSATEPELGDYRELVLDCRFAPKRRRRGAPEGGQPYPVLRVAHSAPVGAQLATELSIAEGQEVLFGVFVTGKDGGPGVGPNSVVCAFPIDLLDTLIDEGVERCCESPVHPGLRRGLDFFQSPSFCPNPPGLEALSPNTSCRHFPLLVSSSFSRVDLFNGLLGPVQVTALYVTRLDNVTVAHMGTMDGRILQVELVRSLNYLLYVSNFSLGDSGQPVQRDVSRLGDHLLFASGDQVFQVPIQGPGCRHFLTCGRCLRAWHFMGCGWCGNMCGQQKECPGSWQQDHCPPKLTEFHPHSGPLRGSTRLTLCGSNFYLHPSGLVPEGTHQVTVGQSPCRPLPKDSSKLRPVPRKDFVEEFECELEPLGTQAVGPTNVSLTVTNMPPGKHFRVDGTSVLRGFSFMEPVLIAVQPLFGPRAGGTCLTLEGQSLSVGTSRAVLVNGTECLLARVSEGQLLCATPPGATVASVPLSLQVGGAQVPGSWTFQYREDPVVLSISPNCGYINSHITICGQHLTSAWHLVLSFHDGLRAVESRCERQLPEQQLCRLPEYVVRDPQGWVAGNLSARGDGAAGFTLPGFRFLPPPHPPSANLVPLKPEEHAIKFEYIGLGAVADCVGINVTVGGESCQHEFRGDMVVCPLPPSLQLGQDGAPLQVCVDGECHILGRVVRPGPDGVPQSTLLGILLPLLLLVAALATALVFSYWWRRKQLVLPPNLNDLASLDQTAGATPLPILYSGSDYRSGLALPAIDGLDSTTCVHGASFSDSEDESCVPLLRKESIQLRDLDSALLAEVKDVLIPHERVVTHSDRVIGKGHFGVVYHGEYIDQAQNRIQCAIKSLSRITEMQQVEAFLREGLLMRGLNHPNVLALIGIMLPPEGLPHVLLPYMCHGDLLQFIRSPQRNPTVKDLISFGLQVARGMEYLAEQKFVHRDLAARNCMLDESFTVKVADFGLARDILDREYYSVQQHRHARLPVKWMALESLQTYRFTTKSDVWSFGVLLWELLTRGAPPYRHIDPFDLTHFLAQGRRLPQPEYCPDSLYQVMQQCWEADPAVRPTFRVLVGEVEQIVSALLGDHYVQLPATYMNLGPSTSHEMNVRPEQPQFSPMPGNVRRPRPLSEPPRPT
# UniProt Q9UEE5, whole entry: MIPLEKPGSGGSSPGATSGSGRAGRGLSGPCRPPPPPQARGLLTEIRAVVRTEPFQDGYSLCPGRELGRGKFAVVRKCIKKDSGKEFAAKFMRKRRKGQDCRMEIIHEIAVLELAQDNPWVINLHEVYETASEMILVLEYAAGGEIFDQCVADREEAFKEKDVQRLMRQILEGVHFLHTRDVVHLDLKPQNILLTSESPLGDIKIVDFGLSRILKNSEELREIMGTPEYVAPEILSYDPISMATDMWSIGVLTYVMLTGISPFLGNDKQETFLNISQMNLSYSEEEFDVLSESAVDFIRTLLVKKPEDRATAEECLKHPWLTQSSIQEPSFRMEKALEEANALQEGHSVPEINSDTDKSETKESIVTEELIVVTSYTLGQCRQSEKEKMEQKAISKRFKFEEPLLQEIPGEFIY
# What was measured:
# Experiment in all cases: KAT chemical proteomics
# [1] = biological target: ABL2 (Homo sapiens, UniProt P42684)
# [2] = biological target: AGK (Homo sapiens, UniProt Q53H12)
# [3] = biological target: PIM1 (Homo sapiens, UniProt P11309)
# [4] = biological target: AKT2 (Homo sapiens, UniProt P31751)
# [5] = biological target: PRKCA (Homo sapiens, UniProt P17252)
# [6] = biological target: EPHA4 (Homo sapiens, UniProt P54764)
# [7] = biological target: ADPGK (Homo sapiens, UniProt Q9BRR6)
# [8] = biological target: MAPKAPK2 (Homo sapiens, UniProt P49137)
# [9] = biological target: EPHB4 (Homo sapiens, UniProt P54760)
# [10] = biological target: ULK1 (Homo sapiens, UniProt O75385)
# [11] = biological target: PLK4 (Homo sapiens, UniProt O00444)
# [12] = biological target: CDK5 (Homo sapiens, UniProt Q00535)
# [13] = system: BCR
# [14] = biological target: IPMK (Homo sapiens, UniProt Q8NFU5)
# [15] = biological target: EPHA2 (Homo sapiens, UniProt P29317)
# [16] = biological target: CLK4 (Homo sapiens, UniProt Q9HAZ1)
# [17] = biological target: TYK2 (Homo sapiens, UniProt P29597)
# [18] = biological target: CLK3 (Homo sapiens, UniProt P49761)
# [19] = biological target: MAP3K10 (Homo sapiens, UniProt Q02779)
# [20] = biological target: PDGFRB (Homo sapiens, UniProt P09619)
# [21] = biological target: MKNK2 (Homo sapiens, UniProt Q9HBH9)
# [22] = system: GPR108
# [23] = biological target: ATM (Homo sapiens, UniProt Q13315)
# [24] = biological target: PIKFYVE (Homo sapiens, UniProt Q9Y2I7)
# [25] = biological target: AURKB (Homo sapiens, UniProt Q96GD4)
# [26] = biological target: TAOK2 (Homo sapiens, UniProt Q9UL54)
# [27] = system: ERCC2
# [28] = biological target: EPHB3 (Homo sapiens, UniProt P54753)
# [29] = biological target: FGFR3 (Homo sapiens, UniProt P22607)
# [30] = biological target: TAOK3 (Homo sapiens, UniProt Q9H2K8)
# [31] = biological target: MST1R (Homo sapiens, UniProt Q04912)
# [32] = biological target: INSR (Homo sapiens, UniProt P06213)
# [33] = system: CCNE1
# [34] = biological target: ULK4 (Homo sapiens, UniProt Q96C45)
# [35] = biological target: NME2 (Homo sapiens, UniProt P22392)
# [36] = biological target: MAPK1 (Homo sapiens, UniProt P28482)
# [37] = biological target: DDR1 (Homo sapiens, UniProt Q08345)
# [38] = system: CCNB1
# [39] = biological target: STK17A (Homo sapiens, UniProt Q9UEE5)
# [40] = biological target: MAP2K5 (Homo sapiens, UniProt Q13163)
# [41] = biological target: MAP4K1 (Homo sapiens, UniProt Q92918)
smiles,measurement,setting,value
"Cc1nc(C(F)(F)F)c2c(C(N)=O)c(N)n(-c3c(C)ccc(O)c3C)c2n1 (single isomer, unassigned)",RB50,[1],132 nM
same,RB50,[2],>50 µM
same,RB50,[3],>50 µM
same,RB50,[4],>50 µM
same,RB50,[5],>50 µM
same,RB50,[6],324 nM
same,RB50,[7],>50 µM
same,RB50,[8],>50 µM
same,RB50,[9],173 nM
same,RB50,[10],>50 µM
same,RB50,[11],>50 µM
same,RB50,[12],>50 µM
same,RB50,[13],119 nM
same,RB50,[14],>50 µM
same,RB50,[15],48.5 nM
same,RB50,[16],>50 µM
same,RB50,[17],>50 µM
same,RB50,[18],>50 µM
same,RB50,[19],>50 µM
same,RB50,[20],>50 µM
same,RB50,[21],>50 µM
same,RB50,[22],>50 µM
same,RB50,[23],>50 µM
same,RB50,[24],>50 µM
same,RB50,[25],>50 µM
same,RB50,[26],>50 µM
same,RB50,[27],>50 µM
same,RB50,[28],114 nM
same,RB50,[29],>50 µM
same,RB50,[30],>50 µM
same,RB50,[31],>50 µM
same,RB50,[32],>50 µM
same,RB50,[33],>50 µM
same,RB50,[34],>50 µM
same,RB50,[35],>50 µM
same,RB50,[36],>50 µM
same,RB50,[37],364 nM
same,RB50,[38],>50 µM
same,RB50,[39],>50 µM
same,RB50,[40],>50 µM
same,RB50,[41],>50 µM
